The target of assay [1] is CN (Rattus norvegicus, UniProt P63100+P63329). The assay is described as follows: CN phosphatase colorimetric assay with RII phosphopeptide as substrate. The class given is biochemical.
Assay [2] deals with FAM-labeled TFEB-YLAVP peptide (mutant). The assay is described as follows: MST.
Assay [3] concerns the target FAM-labeled TFEB-YLENP peptide. The assay is described as follows: MST.
Assay [4] addresses CN. Conditions: read-out: Kd for binding to CN; cited from earlier work.
Assay [5] deals with NFAT activation (NFATc1-c3) in T cells. Conditions: cited from earlier work.
Assay [6] has as its system CN. Conditions: cited from earlier work.

This is an account of results in PMC5774622 (Biochimie, 2017).

For the compound `CC(C)C[C@H](NC(=O)[C@H](Cc1ccc(O)cc1)NC(=O)[C@H](CCC(N)=O)NC(=O)[C@@H](N)CC(=O)O)C(=O)N[C@@H](C)C(=O)N[C@H](C(=O)N1CCC[C@H]1C(=O)N[C@@H](CCC(N)=O)C(=O)N[C@@H](Cc1c[nH]cn1)C(=O)N1CCC[C@H]1C(=O)N[C@@H](Cc1ccc(O)cc1)C(=O)N[C@@H](CCC(N)=O)C(=O)N[C@@H](Cc1c[nH]c2ccccc12)C(=O)N[C@@H](C)C(=O)N[C@@H](CCCCN)C(=O)O)C(C)C` [NFATc1-YLAVP], at CN [1], the midpoint of inhibition, the IC50, lay at 9 µM.
As to “Calcineurin with calmodulin (CN; CNA:CNB:CaM, 1:1:2) (from UniProt P63100 1-170; P62157 1-149) (complex)”, the figures for the Kd in assay [2] and in assay [3] were 2.4 µM and 4.5 µM, respectively.
As for MAGPHPVIVITGPHEE, at CN [4], the dissociation constant (Kd) (usually the equilibrium constant for the complex coming apart) is 0.5 µM. Besides, the “NFAT activation (NFATc1-c3) and NFAT-dependent gene expression in T cells” value in assay [5] was “potently inhibited”. Also, the “effect on CN activity” value in the assay with CN [6] was “without affecting the CN activity”.
